# Earlier results in US7371365B2, “Methods for detecting parenchymal plaques in vivo” (Mayo Foundation for Medical Education and Research, priority 2000, dated 2008).
# Tested on: BBB
# Details: in vivo; cited from earlier work
substance,measurement,value
albumin: protein thought to cross the BBB by passive diffusion; literature comparison,PS value in rat cortex,1.5e-07 mL/g/s
